Data taken from publication PMC7897442, “Mobility shift-based electrophoresis coupled with fluorescent detection enables real-time enzyme analysis of carbohydrate sulfatase activity” (Biochemical Journal, 2021).

What was measured:
[1] = biological target: T1, BT4656^S1_11 sulfatase (Ser77Cys) (Bacteroides thetaiotaomicron, UniProt Q89YS5, S101C); assay: CE-based microfluidic mobility shift desulfation assay (EZ Reader II) with 6S-GlcNAc-BODIPY substrate; type: biochemical; conditions: anions added to CE sulfatase enzyme assays; concentrations up to 10 mM
T1 construct: Hexa His; made in house; host or cells: E. coli strain TUNER (Novagen)
T1 sequence (Q89YS5 1-558 S101C): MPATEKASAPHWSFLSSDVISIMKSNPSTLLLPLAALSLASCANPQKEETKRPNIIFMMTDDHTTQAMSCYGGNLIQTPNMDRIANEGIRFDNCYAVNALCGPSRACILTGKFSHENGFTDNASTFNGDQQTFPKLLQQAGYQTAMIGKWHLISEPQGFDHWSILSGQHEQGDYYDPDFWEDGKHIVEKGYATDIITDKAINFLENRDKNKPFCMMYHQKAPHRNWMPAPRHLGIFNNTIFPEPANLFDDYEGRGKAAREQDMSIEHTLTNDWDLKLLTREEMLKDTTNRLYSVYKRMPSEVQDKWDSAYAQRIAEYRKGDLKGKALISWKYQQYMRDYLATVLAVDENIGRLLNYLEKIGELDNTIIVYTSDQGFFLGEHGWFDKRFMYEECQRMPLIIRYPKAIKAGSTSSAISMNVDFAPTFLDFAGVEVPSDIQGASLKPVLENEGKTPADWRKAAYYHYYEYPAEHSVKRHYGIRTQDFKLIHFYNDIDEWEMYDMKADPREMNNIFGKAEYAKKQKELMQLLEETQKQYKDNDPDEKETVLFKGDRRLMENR
Excerpt: (§1) 6S-N-acetyl-D-glucosamine was labelled at its reducing end with BODIPY which has a maximal emission absorbance of ∼503 nm, which can be detected by the EZ Reader II platform via LED-induced fluorescence. Non-radioactive microfluidic mobility shift carbohydrate sulfation assays were optimised in solution with a 12-sipper chip coated with CR8 reagent and performed using a PerkinElmer EZ Reader II system employing EDTA-based separation buffer and real-time kinetic evaluation of substrate desulfation. Pressure and voltage settings were adjusted manually (1.8 psi, upstream voltage: 2250 V, downstream voltage: 500 V) to afford optimal separation in the reaction mixture of the sulfated substrate and unsulfated glycan product, with a sample (sip) time of 0.2 s, and total assay times appropriate for the experiment. Individual de-sulfation assays were carried out at 28°C and were pre-assembled in a 384-well plate in a volume of 80 μl in the presence of substrate concentrations between 0.5 and 20 μM with 100 mM Bis-Tris-Propane (BTP) or Tris, dependent on the pH required, and 150 mM NaCl, 0.02% (v/v) Brij-35 and 5 mM CaCl2. The amount of de-sulfation was directly calculated in real-time using EZ Reader II software by measuring the sulfated carbohydrate : unsulfated carbohydrate ratio at each time point during the assay. […]

[2] = substrate: CC(=O)N[C@@H]1[C@@H](O)[C@H](O)[C@@H](COS(=O)(=O)O)O[C@H]1NNC(=O)CCC1=[N+]2C(=Cc3c(C)cc(C)n3[B-]2(F)F)C=C1; assay: as above; type: biochemical, Bacteroides thetaiotaomicron; conditions: other: 100 nM BT4656^S1_11; substrate 0.5, 1 and 2 μM; technical triplicates; 28.0 °C
Excerpt: as §1

## O=S(=O)(O)O [sulfate]
[1]
  inhibition of BT4656^S1_11 by inorganic anions: significant inhibition only at high (10 mM) concentrations

## phosphate
[1]
  inhibition of BT4656^S1_11 by inorganic anions: significant inhibition only at high (10 mM) concentrations

B1: BT4656^S1_11 sulfatase (Ser77Cys) (Bacteroides thetaiotaomicron VPI-5482; S101C) (protein)
chain: MPATEKASAPHWSFLSSDVISIMKSNPSTLLLPLAALSLASCANPQKEETKRPNIIFMMTDDHTTQAMSCYGGNLIQTPNMDRIANEGIRFDNCYAVNALCGPSRACILTGKFSHENGFTDNASTFNGDQQTFPKLLQQAGYQTAMIGKWHLISEPQGFDHWSILSGQHEQGDYYDPDFWEDGKHIVEKGYATDIITDKAINFLENRDKNKPFCMMYHQKAPHRNWMPAPRHLGIFNNTIFPEPANLFDDYEGRGKAAREQDMSIEHTLTNDWDLKLLTREEMLKDTTNRLYSVYKRMPSEVQDKWDSAYAQRIAEYRKGDLKGKALISWKYQQYMRDYLATVLAVDENIGRLLNYLEKIGELDNTIIVYTSDQGFFLGEHGWFDKRFMYEECQRMPLIIRYPKAIKAGSTSSAISMNVDFAPTFLDFAGVEVPSDIQGASLKPVLENEGKTPADWRKAAYYHYYEYPAEHSVKRHYGIRTQDFKLIHFYNDIDEWEMYDMKADPREMNNIFGKAEYAKKQKELMQLLEETQKQYKDNDPDEKETVLFKGDRRLMENR
notes: Hexa His; made in house; host or cells: E. coli strain TUNER (Novagen)
[2]
  kcat/Km: 6.4 × 10^4 min^–1 M^–1
